Protein sequences, listed by entry. Tags and fused reporters are not part of them. Lines headed by an entry give the natural chain unless they say otherwise; changes in a name come on top.
UniProt O54968: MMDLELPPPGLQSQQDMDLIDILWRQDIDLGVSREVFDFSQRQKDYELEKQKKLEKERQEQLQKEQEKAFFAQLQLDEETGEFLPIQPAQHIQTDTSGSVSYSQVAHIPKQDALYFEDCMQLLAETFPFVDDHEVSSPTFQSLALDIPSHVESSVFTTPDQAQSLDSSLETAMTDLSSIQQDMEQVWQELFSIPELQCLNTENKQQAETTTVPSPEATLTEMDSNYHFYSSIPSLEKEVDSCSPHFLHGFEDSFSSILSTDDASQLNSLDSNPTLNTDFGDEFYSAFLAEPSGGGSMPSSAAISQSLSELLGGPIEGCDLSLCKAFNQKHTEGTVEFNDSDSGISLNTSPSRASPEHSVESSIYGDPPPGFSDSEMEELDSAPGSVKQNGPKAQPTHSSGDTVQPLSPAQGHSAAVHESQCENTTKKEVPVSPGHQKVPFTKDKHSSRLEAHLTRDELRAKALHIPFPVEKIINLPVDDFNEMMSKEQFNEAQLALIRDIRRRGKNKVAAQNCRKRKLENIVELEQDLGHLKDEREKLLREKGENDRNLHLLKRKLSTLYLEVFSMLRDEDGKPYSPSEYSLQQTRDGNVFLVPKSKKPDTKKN
UniProt P57790: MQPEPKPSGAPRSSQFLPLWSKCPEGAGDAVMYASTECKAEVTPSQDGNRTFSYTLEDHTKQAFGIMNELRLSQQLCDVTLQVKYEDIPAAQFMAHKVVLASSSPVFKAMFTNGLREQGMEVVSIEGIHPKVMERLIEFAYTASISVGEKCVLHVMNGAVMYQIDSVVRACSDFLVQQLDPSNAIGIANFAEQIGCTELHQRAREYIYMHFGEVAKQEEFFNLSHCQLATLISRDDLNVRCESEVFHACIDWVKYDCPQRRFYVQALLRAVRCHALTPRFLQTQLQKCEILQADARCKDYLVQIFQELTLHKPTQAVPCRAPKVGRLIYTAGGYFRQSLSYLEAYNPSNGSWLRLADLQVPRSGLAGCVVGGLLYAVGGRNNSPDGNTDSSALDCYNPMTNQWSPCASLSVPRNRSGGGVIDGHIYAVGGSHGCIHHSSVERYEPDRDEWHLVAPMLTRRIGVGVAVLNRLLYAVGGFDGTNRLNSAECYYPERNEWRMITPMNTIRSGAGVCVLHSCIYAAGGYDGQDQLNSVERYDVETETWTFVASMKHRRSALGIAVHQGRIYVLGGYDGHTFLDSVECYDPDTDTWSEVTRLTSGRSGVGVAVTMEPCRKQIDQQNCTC

According to ChEMBL document CHEMBL5257130, “Methyl and Fluorine Effects in Novel Orally Bioavailable Keap1-Nrf2 PPI Inhibitor” (ACS Med Chem Lett, 2023):

Target: KEAP1/NRF2 (Rattus norvegicus) (UniProt O54968+P57790)
Assay: In vivo inhibition of Nrf2-Keap1 Kelch domain protein-protein interaction in po dosed Wistar rat kidney assessed as increase in HO-1 protein level by measuring fold change at 30 mg/kg incubated for 6 hrs by ELISA assay relative to control
Type: functional, organism-based

`Cc1ccc([C@@H](NC(=O)[C@@H](F)c2ccc3c(c2)CCCC3)[C@@H](C)C(=O)O)cc1` was tested. Which fold change (FC) did it give?
Its fold change (FC) is 4.6.
